The values that follow are results of earlier work, collected in article PMC4033579 (Journal of experimental therapeutics & oncology, 2012).

For the data set, the system named is lung tumor cells. The settings on record: lung cells in culture.

As for `N#CC[C@H](C1CCCC1)n1cc(-c2ncnc3[nH]ccc23)cn1` [ruxolitinib], the “cytotoxicity at concentrations that inhibit Tyr705 phosphorylation” value is reported as “not cytotoxic”.
